# Data from article PMC6435034 (Circulation research, 2019).
# Conditions: mouse, in vivo
compound,measurement,value
"OC[C@H]1OC(O)[C@H](F)[C@@H](O)[C@@H]1O (stereo partly shown) [^18F-FDG, ^18F- Fluorodeoxyglucose]","Heart uptake among MI mice, sham-operated mice and naïve animals",comparable
